Each structure is given as a SMILES string. Like-named read-outs stand apart in the source and are kept apart here. A value given as a limit tells only on which side of the number the result lay.

Amino acid sequences for entries named in this document (tags omitted). Residues count along the entry.
UniProt P01116, 1-169 isoform 2 G12D limits assumed: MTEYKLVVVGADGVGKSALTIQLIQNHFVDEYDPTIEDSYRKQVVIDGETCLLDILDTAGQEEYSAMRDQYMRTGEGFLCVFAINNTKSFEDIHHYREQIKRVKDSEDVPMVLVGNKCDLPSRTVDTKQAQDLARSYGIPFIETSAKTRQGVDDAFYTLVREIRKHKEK

In US20240059710A1, “KRAS G12D Inhibitors” (Jacobio Pharmaceuticals Co., Ltd., priority 2020, published 2024) one finds IC50 data, which are given here for 13 compounds.

In assay [1] the target is GppNp-loaded HIS-KRAS (G12D, aa 1-169) / cRAF RBD (Homo sapiens, UniProt P01116, G12D). As to the kind of experiment: GTP-KRAS and cRAF interaction assay. The procedure: 2. GTP-KRAS and cRAF Interaction Assay
GppNp-loaded HIS-KRAS (G12D, aa 1-169) was pre-incubated with a compound in the presence of 200 µM GTP in a 384-well plate (Greiner) for 15 min, then cRAF RBD (GST tag, aa 50-132, CreativeBioMart), MAb Anti GST-d2 (Cisbio) and MAb Anti 6HIS-Tb cryptate Gold (Cisbio) were added to the assay wells (Final concentration: 2.0 nM GppNp-loaded HIS-KRAS (G12D), 100 μM GTP, 35 nM cRAF RBD, 1 μg/mL MAb Anti GST-d2, 52.5 ng/mL MAb Anti 6HIS-Tb cryptate Gold) and incubated for 2 hours at 25° C. Wells containing same percent of DMSO served as vehicle control, and wells without KRAS served as low control. HTRF signals were read on Tecan Spark multimode microplate reader and HTRF ratios were calculated under manufacturer's instructions. The percent of activation of compounds treated wells were normalized between vehicle control and low control (% Activation=(HTRF ratioCompound treated−HTRF ratioLow control)/(HTRF ratioVehicle control−HTRF ratioLow control)*100). Then the data were analyzed either by fitting a 4-parameter logistic model or by Excel to calculate IC50 values.

Assay [2] concerns the target GDP-loaded HIS-KRAS (G12D, aa 1-169) (Homo sapiens, UniProt P01116, G12D). Briefly: SOS1 catalyzed nucleotide exchange assay. Here is the method: 1. SOS1 Catalyzed Nucleotide Exchange Assay
GDP-loaded HIS-KRAS (G12D, aa 1-169) was pre-incubated with a compound in the presence of 10 nM GDP in a 384-well plate (Greiner) for 15 min, then purified SOS1 ExD (Flag tag, aa 564-1049), BODIPY™ FL GTP (Invitrogen) and MAb (monoclonal antibody) Anti 6HIS-Tb cryptate Gold (Cisbio) were added to the assay wells (Final concentration: 1.5 nM GDP-loaded HIS-KRAS (G12D), 5 nM GDP, 0.5 μM SOS1 ExD, 80 nM BODIPY™ FL GTP, 52.5 ng/mL MAb Anti 6HIS-Tb cryptate Gold) and incubated for 4 hours at 25° C. Wells containing same percent of DMSO served as vehicle control, and wells without KRAS served as low control. TR-FRET signals were read on Tecan Spark multimode microplate reader. The parameters were F486: Excitation 340 nm, Emission 486 nm, Lag time 100 μs, Integration time 200 μs; F515: Excitation 340 nm, Emission 515 nm, Lag time 100 μs, Integration time 200 μs. TR-FRET ratios for each individual wells were calculated by equation: TR-FRET ratio=(Signal F515/Signal F486)*10000. The percent of activation of compounds treated wells were normalized between vehicle control and low control (% Activation=(TR-FRET ratioCompound treated−TR-FRET ratioLow control)/(TR-FRET ratioVehicle control−TR-FRET ratioLow control)*100%). Then the data were analyzed either by fitting a 4-parameter logistic model or by Excel to calculate IC50 values.

The subject of assay [3] is AGS cells expressing KRAS G12D. Briefly: Phospho-ERK1/2(THR202/TYR204) HTRF assay. Here is the method: AGS cells expressing KRAS G12D were cultured in F12K medium (Gibco) containing 10% fetal bovine serum (Gibco). The AGS cells in culture medium were seeded in 96-well plates at a concentration of 40,000 cells/well and then put in a 37° C./5% CO2 cell incubator to incubate overnight. The next day, culture medium was removed and the compound diluted in assay medium (F12K, 0.1% FBS) was added in each well. After 2 hours incubation in a 37° C./5% CO2 cell incubator, the assay medium in 96-well plates was removed, then 50 μL of 1× blocking reagent-supplemented lysis buffer (Cisbio) was added and the plates were incubated at 25° C. for 45 min with shaking. 10 μL of cell lysates from the 96-well plates were transferred to a 384-well plate (Greiner) containing 2.5 μL/well HTRF® pre-mixed antibodies (Cisbio 64AERPEH). Incubate 4 hours at 25° C. and then read HTRF signals on Tecan Spark multimode microplate reader. The data were analyzed using a 4-parameter logistic model to calculate IC50 values.
(Time-resolved FRET reads energy transfer from a long-lived donor to a nearby acceptor.)

The next assay relates to AGS. Briefly: Cell growth inhibition assay (AGS). The procedure:
(§1) 4. Cell Growth Inhibition Assay
AGS cultured in F12K medium (Gibco) containing 10% fetal bovine serum (Gibco). Cells in culture medium were plated in 96-well plates at a concentration of 500 cells/well ([…]) and allowed to attach overnight.
(§2) The next day, compounds were diluted in culture medium and added to the plates. After 6 days incubation in a 37° C./5% CO2 cell incubator, the cell viability was detected by CellTiter-Glo® Luminescent Cell Viability Assay kit (Promega). Luminescent signals were read on Tecan Spark multimode microplate reader and analyzed using a 4-parameter logistic model to calculate IC50 values.

In a further assay the test system is AsPC-1. As to the kind of experiment: Cell growth inhibition assay (AsPC-1). Conditions: read-out: AsPC-1 Cell growth inhibition IC50, AsPC-1, 6 days incubation, CellTiter-Glo. The procedure:
as §1
AsPC-1 cultured in RPMI-1640 medium (Gibco) containing 10% fetal bovine serum (Gibco). Cells in culture medium were plated in 96-well plates at a concentration of 1000 cells/well ([…]) and allowed to attach overnight.
as §2
(In general: Cellular ATP, detected with luciferase, serves as a proxy for viable cell number.)

[4] abbreviates: read-out: GTP-KRAS/cRAF interaction IC50, HTRF, 2 hours at 25° C., tested form: TFA.
Where [5] appears, read: read-out: Nucleotide exchange IC50, SOS1 ExD, TR-FRET, 4 hours at 25° C., tested form: TFA.
Where [6] appears, read: read-out: AGS p-ERK IC50, 2 hours incubation, tested form: TFA.
[7] abbreviates: read-out: AGS Cell growth inhibition IC50, 6 days incubation, CellTiter-Glo, tested form: TFA.
Where [8] appears, read: read-out: GTP-KRAS/cRAF interaction IC50, HTRF, 2 hours at 25° C.
The mark [9] stands for this setting: read-out: Nucleotide exchange IC50, SOS1 ExD, TR-FRET, 4 hours at 25° C.
[10] abbreviates: read-out: AGS Cell growth inhibition IC50, 6 days incubation, CellTiter-Glo.
Where [11] appears, read: read-out: AGS p-ERK IC50, 2 hours incubation.

With `C#Cc1cccc2cc(O)cc(-c3ccc4c(N5CC6CCC(C5)N6)nc(OCC5(C(C)N6CCOCC6)CC5)nc4c3F)c12` (centres unmarked), the IC50 in assay [1] (setting [4]) was 347 nM; in assay [2] (setting [5]), 6.86 nM; in assay [3] (setting [6]) it was 49.5 nM.
`C#Cc1cccc2cc(O)cc(-c3c(SC(F)(F)F)cc4c(N5CC6CCC(C5)N6)nc(OCC5(CN6CCOCC6)CC5)nc4c3F)c12` (single isomer, unassigned) [Compound 59B]: the IC50 in assay [1] (setting [4]) amounted to 94.5 nM; in assay [2] (setting [5]), 40.3 nM; with AGS (setting [7]), 5.25 nM; in assay [3] (setting [6]) it was 25.2 nM; in the assay with AsPC-1 (tested form: TFA) it was 12.7 nM.
Take `C#Cc1cccc2cc(O)cc(-c3cc(F)c4c(N5CC6CCC(C5)N6)nc(OCC5(CN6CCOCC6)CC5)nc4c3F)c12`: the IC50 is 11.1 nM in assay [2] (setting [5]), 21.6 nM in the assay on AGS (setting [7]), 16 nM in assay [3] (setting [6]) and 61.2 nM with AsPC-1 (tested form: TFA).
`C#Cc1cccc2cc(O)cc(-c3c(F)cc4c(N5CC6CCC(C5)N6)nc(OCC5(CN6CCOCC6)CC5)nc4c3C)c12` (single isomer, unassigned): the IC50 in assay [1] (setting [8]) was found to be 138 nM; in assay [2] (setting [9]) it was 1.15 nM; in the assay on AGS (setting [10]), 19.3 nM; in assay [3] (setting [11]), 139 nM; in the assay with AsPC-1, 58 nM.
With `CSc1cccc2cc(O)cc(-c3ccc4c(N5CC6CCC(C5)N6)nc(OCC5(CN6CCOCC6)CC5)nc4c3F)c12`, the IC50 is 330 nM in assay [1] (setting [4]), 9.31 nM in assay [2] (setting [5]), 28.7 nM in the assay on AGS (setting [7]) and 118 nM in the assay on AsPC-1 (tested form: TFA).
As for `CN(C)CC1(COc2nc(N3CC4CCC(C3)N4)c3cc(Cl)c(-c4cc(O)cc5cccc(Cl)c45)c(F)c3n2)CC1`, the IC50 in assay [1] (setting [4]) is 524 nM; in assay [2] (setting [5]), 32.2 nM.
Regarding `C#Cc1cccc2cc(O)cc(-c3ccc4c(N5CC6CCC(C5)N6)nc(OCC5(CN6CCOCC6)CCC5)nc4c3F)c12`, the IC50 in assay [1] (setting [8]) was 429 nM; in assay [2] (setting [9]), 6.64 nM; in the assay with AGS (setting [10]), 79.9 nM; in assay [3] (setting [11]), greater than 200 nM; in the assay with AsPC-1 it was 462 nM.
In the case of `C#Cc1cccc2cc(O)cc(-c3c(C#N)cc4c(N5CC6CCC(C5)N6)nc(OCC5(CN6CCOCC6)CC5)nc4c3F)c12` (single isomer, unassigned), the IC50 in assay [1] (setting [4]) stood at 89.4 nM; in assay [2] (setting [5]), 26.8 nM; with AGS (setting [7]) it was 24.6 nM; in assay [3] (setting [6]), 7.85 nM.
For the compound `C#Cc1cccc2cc(O)cc(-c3cc4nc(OCC5(CN6CCOCC6)CC5)nc(N5CC6CCC(C5)N6)c4cc3C3CC3)c12`, the IC50 worked out at 220 nM in assay [1] (setting [4]) and 66.8 nM in assay [2] (setting [5]).
In the case of `N#CCCc1cc2c(N3CC4CCC(C3)N4)nc(OCC3(CN4CCOCC4)CC3)nc2c(F)c1-c1cc(O)cc2ccccc12`, the IC50 in assay [1] (setting [4]) amounted to 353 nM; in assay [2] (setting [5]), 5.05 nM; in the assay on AGS (setting [7]), 79.2 nM.
Take `C#Cc1c(C)ccc2cc(O)cc(-c3ccc4c(N5CC6CCC(C5)N6)nc(OCC5(CN6CCOCC6)CC5)nc4c3F)c12`: the IC50 amounted to 99.8 nM in assay [1] (setting [4]); 11.8 nM in assay [2] (setting [5]); 3.65 nM with AGS (setting [7]); 6.32 nM in assay [3] (setting [6]); 15.9 nM with AsPC-1 (tested form: TFA).
Turning to `C#Cc1ccc(F)c2cc(O)cc(-c3ccc4c(N5CC6CCC(C5)N6)nc(OCC5(CN6CCOCC6)CC5)nc4c3F)c12`, the IC50 is 176 nM in assay [1] (setting [4]), 30.9 nM in the assay with AGS (setting [7]), 15.3 nM in assay [3] (setting [6]) and 60.7 nM in the assay on AsPC-1 (tested form: TFA).
`C#Cc1cccc2cc(O)cc(-c3ccc4c(N5C6CCC5CNC6)nc(OCC5(CN6CCOCC6)CC5)nc4c3F)c12`: the IC50 turned out to be 269 nM in assay [1] (setting [4]), 14 nM in assay [2] (setting [5]), 103 nM with AGS (setting [7]) and 80.3 nM in the assay with AsPC-1 (tested form: TFA).
